This note sets out measurements from ChEMBL document CHEMBL5036327, “Systematic Optimization of Potent and Orally Bioavailable Purine Scaffold as a Dual Inhibitor of Toll-Like Receptors 7 and 9” (J Med Chem, 2021).

The target in this assay is T1, Toll-like receptor 9 (Homo sapiens, UniProt Q9NR96).
T1 sequence (Q9NR96 whole entry): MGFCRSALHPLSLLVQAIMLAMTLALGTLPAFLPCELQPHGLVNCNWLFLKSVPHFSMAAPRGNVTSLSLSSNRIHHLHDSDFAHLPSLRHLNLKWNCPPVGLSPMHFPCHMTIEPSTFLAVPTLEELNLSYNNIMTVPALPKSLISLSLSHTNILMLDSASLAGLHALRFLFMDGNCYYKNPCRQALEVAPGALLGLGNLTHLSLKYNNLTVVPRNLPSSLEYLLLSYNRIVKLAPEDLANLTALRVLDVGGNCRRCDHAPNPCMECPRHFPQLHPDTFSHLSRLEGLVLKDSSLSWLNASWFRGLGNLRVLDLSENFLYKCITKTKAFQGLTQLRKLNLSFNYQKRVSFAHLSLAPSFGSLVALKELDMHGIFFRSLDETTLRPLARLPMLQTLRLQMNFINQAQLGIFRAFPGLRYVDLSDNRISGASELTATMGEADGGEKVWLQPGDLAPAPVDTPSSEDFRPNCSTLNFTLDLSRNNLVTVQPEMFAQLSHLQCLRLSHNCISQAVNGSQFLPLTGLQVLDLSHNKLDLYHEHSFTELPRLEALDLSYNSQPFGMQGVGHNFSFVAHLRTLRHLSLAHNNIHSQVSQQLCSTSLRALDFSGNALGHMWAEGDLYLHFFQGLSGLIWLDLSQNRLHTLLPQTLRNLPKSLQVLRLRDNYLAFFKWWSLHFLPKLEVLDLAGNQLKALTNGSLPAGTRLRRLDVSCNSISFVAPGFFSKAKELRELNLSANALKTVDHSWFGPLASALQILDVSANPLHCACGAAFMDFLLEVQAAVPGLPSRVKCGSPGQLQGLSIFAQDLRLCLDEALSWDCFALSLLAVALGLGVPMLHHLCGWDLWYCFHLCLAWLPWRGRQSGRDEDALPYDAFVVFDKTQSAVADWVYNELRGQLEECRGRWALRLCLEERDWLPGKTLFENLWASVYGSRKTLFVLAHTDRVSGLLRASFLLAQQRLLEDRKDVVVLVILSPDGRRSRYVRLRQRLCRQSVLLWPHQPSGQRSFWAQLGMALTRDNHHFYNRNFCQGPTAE
The assay is described as follows: Antagonist activity at human TLR9 expressed in […] cells assessed as inhibition of CpGB-induced NFkappaB activation measured after overnight incubation by SEAP-based spectrophotometry assay. The assay is classed as cell-based, HEK293.

The IC50 is the concentration that gives 50% inhibition. Turning to `CN(C)Cc1ccc(CNc2nc(N3CCN(C4CCCC4)CC3)c3ncn(CCCN4CCCC4)c3n2)cc1`, the half-maximal inhibitory concentration (IC50) came to 7 nM.
